The results in this text go back to patent US5721356A, “Orally active adenosine kinase inhibitors” (Gensia, Inc., priority 1995, dated 1998).

The chains behind the UniProt entries cited, without tags or fusion partners. Residues count along the entry.
UniProt A0A5G2R0F5, 1-362: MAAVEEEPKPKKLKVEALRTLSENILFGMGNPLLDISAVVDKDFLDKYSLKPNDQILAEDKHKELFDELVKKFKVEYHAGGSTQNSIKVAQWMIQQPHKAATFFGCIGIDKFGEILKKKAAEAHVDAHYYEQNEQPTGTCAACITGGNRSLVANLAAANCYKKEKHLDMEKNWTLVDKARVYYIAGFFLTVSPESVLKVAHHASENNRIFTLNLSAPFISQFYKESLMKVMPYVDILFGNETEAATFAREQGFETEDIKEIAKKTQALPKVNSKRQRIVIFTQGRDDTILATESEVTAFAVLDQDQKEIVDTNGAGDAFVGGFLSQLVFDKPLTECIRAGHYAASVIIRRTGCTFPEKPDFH

The target of this test is T1, partially purified pig heart adenosine kinase (Sus scrofa, UniProt A0A5G2R0F5).
T1 construct: partially purified pig heart adenosine kinase; from tissue; host or cells: pig heart
Description: Adenosine kinase (AK) inhibition. It is filed as biochemical. Here is the method: Adenosine kinase activity was measured essentially as described by Yamada et al. Biochim. Biophys. Acta 660, 36-43 […] with a few minor modifications. Assay mixtures contained 50 mM TRIS-maleate buffer, pH 7.0, 0.1% BSA, 1 mM ATP 1 mM MgCl2, 0.5 μM [U-^14 C]adenosine (400-600 mCi/mmol) and varying duplicate concentrations of inhibitor. The reactions were initiated by addition of approximately 0.1 μU partially purified pig heart adenosine kinase, where one unit is defined as that amount of enzyme required to phosphorylate 1 μmol adenosine per minute. The reactions were incubated for 20 minutes at 37° C. The assay was quenched upon spotting 30 μL aliquots onto 2 cm^2 pieces of Whatman DE81 anion exchange paper. The paper squares were washed for 3 minutes in 6 L distilled/deionized water to remove the unreacted adenosine. […] The amount of ^14 C-AMP was quantified by scintillation counting.

`C[C@H]1O[C@@H](n2cc(-c3ccccc3)c3c(Nc4ccccc4)ncnc32)[C@H](O)[C@@H]1O` [#4, 4-phenylamino-5-phenyl-7-(5-deoxy-1-β-D-ribofuranosyl)pyrrolo[2,3-d]pyrimidine] registered an IC50 of 2 nM.

One may read the IC50 as the concentration needed to halve the response being measured.
